Test results: patent publication US20060241067A1, “Methods For inhibiting angiogenesis, cell migration, cell adhesion, and cell survival” (priority 2002, published 2006)

Test system: chick chorioallantoic membrane (CAM)
Assay: Chick chorioallantoic membrane (CAM) angiogenesis assay
Type: in vivo, chicken

For “CGRP: calcitonin gene related peptide, a vasodilatory peptide hormone (ACDTATCVTHRLAGLLSRSGGVVKNNFVPTNVGSKAF; Calcitonin gene-related peptide 1; UniProt P06881 83-119, looked up)”, the “angiogenesis (blood vessel branch points, vessel density)” value (bFGF stimulated CAMs, 1 μM peptide) was “Only PTHrP inhibited angiogenesis” and the “pre-existing vessels (number, size, composition)” value (saline-stimulated CAMs) was “no effect on the number, size or composition of pre-existing vessels”.
